# Data taken from PubChem BioAssay AID2520 (Sanford-Burnham Center for Chemical Genomics, 2010).
# The chains behind the UniProt entries cited, without tags or fusion partners.
# UniProt P35414, whole entry: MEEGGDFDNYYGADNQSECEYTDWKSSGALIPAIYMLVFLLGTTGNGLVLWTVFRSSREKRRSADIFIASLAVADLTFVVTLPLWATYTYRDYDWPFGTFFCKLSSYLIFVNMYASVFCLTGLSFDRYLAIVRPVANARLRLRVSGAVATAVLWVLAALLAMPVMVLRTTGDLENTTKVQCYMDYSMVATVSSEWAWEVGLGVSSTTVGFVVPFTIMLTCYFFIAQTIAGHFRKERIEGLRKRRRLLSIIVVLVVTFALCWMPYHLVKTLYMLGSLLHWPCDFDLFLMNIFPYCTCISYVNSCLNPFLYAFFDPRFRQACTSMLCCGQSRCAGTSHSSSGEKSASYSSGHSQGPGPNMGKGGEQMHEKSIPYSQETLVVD
# The entries are a selection whose mix differs from that of the whole data set. Some tests of the compounds listed are not included; inactive here does not mean inactive elsewhere. Activity calls are given as the source filed them.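 The calls were made as follows: active = activation more than six SD over the plate average, tested at 20 µM; inactive = the rest.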
# Biological target: Apelin receptor (Homo sapiens) (UniProt P35414)
# Assay: APJ activation via beta-arrestin recruitment – CHO-K1 cells, PathHunter beta-arrestin, luminescence, primary screen (AID 2520)
# Details: at 20 µM, active compounds read high, 0% DMSO wells, 100% apelin
# Summary of the method: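 Assay system: engineered CHO-K1 APJ arrestin reporter cells; Amount: 1000 CHO-K1 reporter cells seeded per well; Dosing: one dose, 20 µM compound, 1% DMSO; Times: compound stimulation 90 min at 25 °C, detection 60 min; Measured by: luminescent beta-gal fragment complementation, chemiluminescent substrate; Read-out: APJ–arrestin association signal; Controls: DMSO vs Apelin-13 10 nM.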
row,Structure (SMILES),activation
1,COc1ccc(Br)c(C(=O)NCC2(N3CCCCC3)CCCCC2)c1,inactive: -5.51%
2,CN(C)c1cccc(C(=O)NCC2(N(C)C)CCCCC2)c1,inactive: 1.54%
3,CC(C)Oc1ccc(C(=O)NCC2(N(C)C)CCCCC2)cc1,inactive: -2.45%
4,O=C(OC1CN2CCC1CC2)C(CO)(c1ccccc1)c1ccccc1 (centres undefined),inactive: -5.32%
5,COc1cccc(C(=O)NCC2(N3CCCCC3)CCCCC2)c1,inactive: -1.81%
6,COc1ccc(Cl)cc1C(=O)NCC1(N(C)C)CCCCC1,inactive: -5.32%
7,O=C(NCC1(N2CCCCC2)CCCCC1)c1cccc(Cl)c1,inactive: -4.01%
8,CN(C)C1(CNC(=O)c2ccc(Br)cc2)CCCCC1,inactive: -1.27%
9,COc1cc(C(=O)NCC2(N(C)C)CCCCC2)c([N+](=O)[O-])cc1OC,inactive: 1.79%
10,C=CCN1CCN(CCOC(=O)C(O)(c2ccccc2)c2ccccc2)CC1,inactive: -2.08%
11,O=C(NCC1(N2CCCCC2)CCCCC1)c1cc(F)c(F)cc1Cl,inactive: -2.75%
12,CCN1CCCC(OC(=O)C2(O)c3ccccc3C=Cc3ccccc32)C1 (centres undefined),inactive: 0.489%
13,Cc1cc(C(=O)NCC2(N3CCCCC3)CCCCC2)ccc1[N+](=O)[O-],inactive: -0.942%
14,O=C(NCC1(N2CCCCC2)CCCCC1)c1cccc(Br)c1,inactive: -2.19%
15,COc1ccc(C(=O)NCC2(N(C)C)CCCCC2)cc1,inactive: -2.41%
16,Cc1ccccc1C(=O)NCC1(N2CCCCC2)CCCCC1,inactive: -4.99%
17,CN(C)c1ccc(C(=O)NCC2(N(C)C)CCCCC2)cc1,inactive: -3.39%
18,CN(C)C1CCCC1OC(=O)C(O)(c1ccccc1)c1ccccc1 (centres undefined),inactive: -1.89%
19,CC(C)N1C(=O)CC2(CCN(CCOC(=O)C(O)(c3ccccc3)c3ccccc3)CC2)C1=O,inactive: 1.58%
20,CCN(CC)CC(C)C(C)OC(=O)C(O)(c1ccccc1)c1ccccc1 (centres undefined),inactive: -1.96%
21,COc1cc(SC)ccc1C(=O)NCC1(N(C)C)CCCCC1,inactive: -1.33%
22,Cc1ccc(C(=O)NCC2(N3CCCCC3)CCCCC2)cc1,inactive: -2.56%
23,O=C(NCC1(N2CCCCC2)CCCCC1)c1cc([N+](=O)[O-])ccc1Cl,inactive: -0.606%
24,CN1[C@@H]2CC[C@H]1CC(OC(=O)C(O)(c1ccccc1)c1ccccc1)C2 (some centres undefined),inactive: -2.16%
